Earlier results, collected in patent US20240050950A1, “GRADIENT-BASED MICROFLUIDIC CIRCUIT, DEVICE, AND METHOD FOR PERFORMING AN ASSAY” (priority 2020, published 2024).
Like-named read-outs stand apart in the source and are kept apart here.

Conditions: cited from earlier work

| Molecule | Molar volume (Table 3, antifungal drugs and other molecules) [cm^3] | Molar volume (Table 2, anticancer drugs) [cm^3] |
| --- | --- | --- |
| CC(=O)Nc1c2sscc-2n(C)c1=O [Thiolutin] | 146.5 ± 5.0 |  |
| Ibritumomab Tiuxetan (conjugate, chains of the INN, looked up, tiuxetan chelator) heavy: QAYLQQSGAELVRPGASVKMSCKASGYTFTSYNMHWVKQTPRQGLEWIGAIYPGNGDTSYNQKFKGKATLTVDKSSSTAYMQLSSLTSEDSAVYFCARVVYYSNSYWYFDVWGTGTTVTVSAPSVYPLAPVCGDTTGSSVTLGCLVKGYFPEPVTLTWNSGSLSSGVHTFPAVLQSDLYTLSSSVTVTSSTWPSQSITCNVAHPASSTKVDKKIEPRGPTIKPCPPCKCPAPNLLGGPSVFIFPPKIKDVLMISLSPIVTCVVVDVSEDDPDVQISWFVNNVEVHTAQTQTHREDYNSTLRVVSALPIQHQDWMSGKEFKCKVNNKDLPAPIERTISKPKGSVRAPQVYVLPPPEEEMTKKQVTLTCMVTDFMPEDIYVEWTNNGKTELNYKNTEPVLDSDGSYFMYSKLRVEKKNWVERNSYSCSVVHEGLHNHHTTKSFSR light: QIVLSQSPAILSASPGEKVTMTCRASSSVSYMHWYQQKPGSSPKPWIYAPSNLASGVPARFSGSGSGTSYSLTISRVEAEDAATYYCQQWSFNPPTFGAGTKLELKRADAAPTVFIFPPSDEQLKSGTASVVCLLNNFYPREAKVQWKVDNALQSGNSQESVTEQDSKDSTYSLSSTLTLSKADYEKHKVYACEVTHQGLSSPVTKSFN |  | 399.8 ± 7.0 |
